Experimental data: US20250134865A1, “METHODS OF WEIGHT LOSS IN A SUBJECT WITH ELEVATED HBA1C” (published 2025)
“And” between values parts separate entries of the source, which are not always exact repeats. Equal entries are not always repeated. Marks after values point to notes of the source that are not given here.

How the values were obtained:
[1] = Phase 2a trial: InBody body fat mass; conditions: Day 61
[2] = Phase 2a trial: InBody body weight; conditions: for InBody body weight mean change from baseline, LS Mean (SEM) / InBody body weight, Difference of LS Mean and Placebo (SEM) / mean body weight decrease compared with placebo: Day 61; for mean body weight decrease compared with placebo: 450 mg (high dose)
glycated albumin = test: Phase 2a trial: percent glycated albumin
[3] = test system: subjects with nonalcoholic fatty liver disease (NAFLD), elevated liver fat (>8%), and elevated body mass index (BMI); test: Phase 2a trial: liver volume; conditions: for Liver Volume, Difference in LS Mean (Compound 1 minus placebo): Day 61
[4] = test system: subjects with nonalcoholic fatty liver disease (NAFLD), elevated liver fat (>8%), and elevated body mass index (BMI); test: Phase 2a trial: ELF; conditions: overall population
[5] = Phase 2a trial: body fat compartments by MRI; conditions: 61-day study
[6] = test system: subjects with nonalcoholic fatty liver disease (NAFLD), elevated liver fat (>8%), and elevated body mass index (BMI); test: Phase 2a trial: liver fat content by MRI-PDFF; conditions: for MRI-Proton Density Fat Fraction, Difference in LS Mean, Compound 1-Placebo: 150 mg, Day 61
[7] = 150 mg, HbA1c 5.7%-9.0% subgroup
[8] = 300 mg, HbA1c 5.7%-9.0% subgroup
[9] = 450 mg, HbA1c 5.7%-9.0% subgroup
[10] = 150 mg, elevated HbA1c subgroup
[11] = 150 mg, total patient population
[12] = 300 mg, elevated HbA1c subgroup
[13] = 300 mg, total patient population
[14] = 450 mg, elevated HbA1c subgroup
[15] = 450 mg, total patient population
[16] = 150 mg, HbA1c 5.7% to 9.0% subgroup
[17] = 300 mg, HbA1c 5.7% to 9.0% subgroup
[18] = 450 mg, HbA1c 5.7% to 9.0% subgroup
[19] = 15 mg (so in the source), HbA1c 5.7%-9.0% subgroup

Cn1c(COc2ccc([N+](=O)[O-])cc2[N+](=O)[O-])cnc1[N+](=O)[O-]
Body Fat Mass mean change from baseline, LS Mean (SEM) ([1]; 150 mg, FAS population): −0.42 (1.004) lbs
Body Fat Mass, Difference of LS Mean and Placebo (SEM) ([1]; 150 mg, FAS population): −1.03 (1.425) lbs
Body Fat Mass mean change from baseline, LS Mean (SEM) [1, 7]: −1.78 (1.828) lbs
Body Fat Mass, Difference of LS Mean and Placebo (SEM) [1, 7]: −3.32 (2.562) lbs
Body Fat Mass mean change from baseline, LS Mean (SEM) ([1]; 300 mg, FAS population): −3.23 (0.961) lbs
Body Fat Mass, Difference of LS Mean and Placebo (SEM) ([1]; 300 mg, FAS population): −3.84 (1.395) lbs
Body Fat Mass mean change from baseline, LS Mean (SEM) [1, 8]: −3.36 (1.703) lbs
Body Fat Mass, Difference of LS Mean and Placebo (SEM) [1, 8]: −4.90 (2.472) lbs
Body Fat Mass mean change from baseline, LS Mean (SEM) ([1]; 450 mg, FAS population): −5.34 (1.014) lbs
Body Fat Mass, Difference of LS Mean and Placebo (SEM) ([1]; 450 mg, FAS population): −5.95 (1.434) lbs
Body Fat Mass mean change from baseline, LS Mean (SEM) [1, 9]: −9.02 (1.696) lbs
Body Fat Mass, Difference of LS Mean and Placebo (SEM) [1, 9]: −10.57 (2.469) lbs
InBody body weight mean change from baseline, LS Mean (SEM) [2, 10]: −0.73 (1.453) lbs
InBody body weight, Difference of LS Mean and Placebo (SEM) [2, 10]: −1.14 (2.066) lbs
InBody body weight mean change from baseline, LS Mean (SEM) [2, 11]: −1.14 (1.028) lbs
InBody body weight, Difference of LS Mean and Placebo (SEM) [2, 11]: −0.93 (1.467) lbs
InBody body weight mean change from baseline, LS Mean (SEM) [2, 12]: −3.10 (1.343) lbs
InBody body weight, Difference of LS Mean and Placebo (SEM) [2, 12]: −3.52 (1.990) lbs
InBody body weight mean change from baseline, LS Mean (SEM) [2, 13]: −3.92 (0.981) lbs
InBody body weight, Difference of LS Mean and Placebo (SEM) [2, 13]: −3.71 (1.435) lbs
mean body weight decrease compared with placebo ([2]; overall): 6 pounds
mean body weight decrease compared with placebo ([2]; subgroup with elevated HbA1c): 10 pounds
InBody body weight mean change from baseline, LS Mean (SEM) [2, 14]: −9.35 (1.341) lbs
InBody body weight, Difference of LS Mean and Placebo (SEM) [2, 14]: −9.77 (1.985) lbs
InBody body weight mean change from baseline, LS Mean (SEM) [2, 15]: −6.04 (1.034) lbs
InBody body weight, Difference of LS Mean and Placebo (SEM) [2, 15]: −5.83 (1.471) lbs
Percent weight change at day 61 ([2]; 450 mg, overall population (FAS)): −2.55%
Percent weight change at day 61 ([2]; 450 mg, subjects with high HbA1c): −4%
Percent Glycated Albumin, change from baseline to Day 61, Mean (glycated albumin; 150 mg, FAS population): −0.18%
Percent Glycated Albumin, change from baseline to Day 61, Median (glycated albumin; 150 mg, FAS population): 0.1%
Percent Glycated Albumin, change from baseline to Day 61, Mean (glycated albumin; [7]): −0.78%
Percent Glycated Albumin, change from baseline to Day 61, Median (glycated albumin; [7]): 0.15%
Percent Glycated Albumin, change from baseline to Day 61, Mean (glycated albumin; 300 mg, FAS population): −0.66%
Percent Glycated Albumin, change from baseline to Day 61, Median (glycated albumin; 300 mg, FAS population): −0.55%
Percent Glycated Albumin, change from baseline to Day 61, Mean (glycated albumin; [8]): −0.36%
Percent Glycated Albumin, change from baseline to Day 61, Median (glycated albumin; [8]): −0.2%
Percent Glycated Albumin, change from baseline to Day 61, Mean (glycated albumin; 450 mg, FAS population): −1.49%
Percent Glycated Albumin, change from baseline to Day 61, Median (glycated albumin; 450 mg, FAS population): −1.25%
Percent Glycated Albumin, change from baseline to Day 61, Mean (glycated albumin; [9]): −1.73%
Percent Glycated Albumin, change from baseline to Day 61, Median (glycated albumin; [9]): −1.7%
Liver Volume, Difference in LS Mean (Compound 1 minus placebo) [3, 16]: -0.15 L
Liver Volume, Difference in LS Mean (Compound 1 minus placebo) ([3]; 150 mg, all subjects): -0.08 L
Liver Volume at Day 61, Mean [3, 16]: 2.26 L
Liver Volume at Day 61, Median [3, 16]: 2.34 L
Liver Volume, LS mean change from baseline at Day 61 [3, 16]: -0.16 L
Liver Volume at Day 61, Mean ([3]; 150 mg, all subjects): 2.18 L
Liver Volume at Day 61, Median ([3]; 150 mg, all subjects): 2.13 L
Liver Volume, LS mean change from baseline at Day 61 ([3]; 150 mg, all subjects / overall population): -0.08 L
Liver Volume, Difference in LS Mean (Compound 1 minus placebo) [3, 17]: -0.17 L
Liver Volume, Difference in LS Mean (Compound 1 minus placebo) ([3]; 300 mg, all subjects): -0.14 L
Liver Volume at Day 61, Mean [3, 17]: 2.22 L
Liver Volume at Day 61, Median [3, 17]: 2.01 L
Liver Volume, LS mean change from baseline at Day 61 [3, 17]: −0.17^a L and −0.17 L
Liver Volume at Day 61, Mean ([3]; 300 mg, all subjects): 1.96 L
Liver Volume at Day 61, Median ([3]; 300 mg, all subjects): 1.87 L
Liver Volume, LS mean change from baseline at Day 61 ([3]; 300 mg, all subjects / overall population): -0.14 L
Liver Volume, Difference in LS Mean (Compound 1 minus placebo) [3, 18]: -0.14 L
Liver Volume, Difference in LS Mean (Compound 1 minus placebo) ([3]; 450 mg, all subjects): -0.14 L
Liver Volume at Day 61, Mean [3, 18]: 2.17 L
Liver Volume at Day 61, Median [3, 18]: 2.27 L
Liver Volume, LS mean change from baseline at Day 61 [3, 18]: -0.15 L
Liver Volume at Day 61, Mean ([3]; 450 mg, all subjects): 2.07 L
Liver Volume at Day 61, Median ([3]; 450 mg, all subjects): 2.01 L
Liver Volume, LS mean change from baseline at Day 61 ([3]; 450 mg, all subjects / overall population): -0.14 L
ELF, LS mean change at day 61 ([4]; 150 mg): 0.41
ELF, LS mean change at day 61 ([4]; 300 mg): 0.35
ELF, LS mean change at day 61 ([4]; 450 mg): 0.51
Fat loss by compartment by MRI [5]: Fat loss was observed in hepatic, visceral, and subcutaneous compartments
MRI-PDFF change from baseline at Day 61, Difference of LS Mean and Placebo [6, 19]: −5.83
MRI-PDFF mean change from baseline at Day 61, LS Mean (ANCOVA) [6, 19]: −5.35
MRI-PDFF percent change from baseline to Day 61, Mean ([6]; 150 mg once daily oral, HbA1c 5.7%-9.0% subgroup): −36.488%
MRI-Proton Density Fat Fraction, Difference in LS Mean, Compound 1-Placebo ([6]; HbA1c 5.7% to 9.0% subgroup): −5.83%
MRI-Proton Density Fat Fraction, Difference in LS Mean, Compound 1-Placebo ([6]; all subjects): −5.21%
